# System: hepatic progenitors
# Experiment: Treatment of hepatic progenitors (days 13-18), hepatocyte-like cell, periportal versus perivenous gene expression
# Type: cell-based, human
smiles,measurement,value
"Cc1cnc(-c2cnc(NCCNc3ccc(C#N)cn3)nc2-c2ccc(Cl)cc2Cl)[nH]1 [CHIR99201, 6-[[2-[[4-(2,4-dichlorophenyl)-5-(5-methyl-1H-imidazol-2-yl)-2pyrimidinyl]amino]ethyl]amino]-3-pyridinecarbonitrile]",expression of hepatic genes,vastly reduces

# Source: patent US20170304369A1, “METHODS OF DIFFERENTIATING STEM CELLS INTO LIVER CELL LINEAGES” (Agency for Science, Technology and Research, priority 2014, published 2017)
